Antibody variant affinities, Ab-14 heavy chain, assay B

Antigen: PDVDLGDISGINAS, a 14-residue peptide of the SARS-CoV-2 spike HR2 region.

The variants keep the light chain, the linker and the frameworks of Ab-14 (scFv order VH, three GGGGS repeats, VL).
VH: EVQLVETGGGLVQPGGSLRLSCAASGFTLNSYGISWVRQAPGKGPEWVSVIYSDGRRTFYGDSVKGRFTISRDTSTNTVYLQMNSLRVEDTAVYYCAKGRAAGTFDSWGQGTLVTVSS
VL: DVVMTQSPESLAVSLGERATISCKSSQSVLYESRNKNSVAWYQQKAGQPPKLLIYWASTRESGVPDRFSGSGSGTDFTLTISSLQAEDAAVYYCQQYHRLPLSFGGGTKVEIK

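The variants were designed computationally from a first round of random CDR variants and then made and measured. Their group label is 14H_En_Gen (En: ensemble of fine-tuned language models; Gen: genetic algorithm). The scFvs were displayed on barcoded MATa yeast, the peptide on MATalpha yeast. After mating in shaken culture at 30 °C for 16 h, diploids were selected and their barcode pairs sequenced. Read counts were normalised to the haploid input and turned into Kd by a linear fit to BCL2-family pairs of known affinity, for each replicate. Mating was done six times.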

Each variant's VH is given in full.
Numbers give log10(Kd / nM), so 0 is 1 nM and 3 is 1 µM. Smaller is tighter.
Where no diploid with the target was found in that replicate, the entry reads "nd": below detection, most likely a poor binder, though not proof of it.
As a blank, each scFv also met three strains without target: over all heavy chain designs, 1% of these pairings were detected, typically at 2.08 and seldom below 0.84. Also given: how often the same scFv was detected with the empty control strains.
In the paper, a design with two or fewer of six values counts as a poor binder.
The range of this assay differs from that of the first round, and the authors advise against merging the two.

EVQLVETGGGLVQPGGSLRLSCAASGFDLNEYGISWVRQAPGKGPEWVSVIYADGMRTAYTDDVKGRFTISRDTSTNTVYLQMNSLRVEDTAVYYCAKGENAGTFDLWGQGTLVTVSS: -1.18, -0.80, 0.17, 0.22, 0.60, -0.26 (controls 0 of 18).
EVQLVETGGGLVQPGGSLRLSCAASGFDLNEYGISWVRQAPGKGPEWVSVIYADGMRTAYADDVKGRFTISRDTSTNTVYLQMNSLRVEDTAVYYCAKGQNAGTFDIWGQGTLVTVSS: -1.10, -0.80, nd, nd, nd, -1.01 (controls 0 of 18).
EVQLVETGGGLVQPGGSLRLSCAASGFDLNEYGISWVRQAPGKGPEWVSVIYADGQRTAYVDSVKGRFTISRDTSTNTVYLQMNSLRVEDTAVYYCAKGNVAGTFDTWGQGTLVTVSS: -0.35, -0.62, -0.73, -0.73, -0.59, -0.12 (controls 0 of 18).
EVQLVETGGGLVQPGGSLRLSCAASGFDLNEYGISWVRQAPGKGPEWVSVIYADGVRTAYADNVKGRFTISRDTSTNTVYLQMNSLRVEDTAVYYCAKGNVAGTFDIWGQGTLVTVSS: -0.01, -0.02, -0.13, -0.56, -0.24, -0.43 (controls 0 of 18).
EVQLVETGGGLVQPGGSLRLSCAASGFDLNEYGISWVRQAPGKGPEWVSVIYADGMRTAYADKVKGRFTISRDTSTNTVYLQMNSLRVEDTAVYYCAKGNVAGTFDVWGQGTLVTVSS: -0.32, -0.20, -0.31, -0.68, -0.95, -0.37 (controls 0 of 18).
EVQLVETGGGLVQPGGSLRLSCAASGFDLDEYGISWVRQAPGKGPEWVSVIYADGVRTAYADSVKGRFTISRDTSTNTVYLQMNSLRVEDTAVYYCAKGNVAGTFDVWGQGTLVTVSS: -1.47, -1.01, -2.17, -1.78, -1.29, -1.17 (controls 0 of 18).
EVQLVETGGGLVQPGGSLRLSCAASGFDLDEYGISWVRQAPGKGPEWVSVIYADGVRTAYSDSVKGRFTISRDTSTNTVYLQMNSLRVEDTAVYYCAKGQNAGTFDVWGQGTLVTVSS: -0.56, -1.21, -0.73, -1.38, -1.26, -1.05 (controls 0 of 18).
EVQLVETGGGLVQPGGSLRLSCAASGFDLEDYGISWVRQAPGKGPEWVSVIYADGMRTAYSDSVKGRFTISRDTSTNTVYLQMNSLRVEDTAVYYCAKGNVAGTFDQWGQGTLVTVSS: -0.64, -0.66, -0.86, -1.04, -0.97, -0.71 (controls 0 of 18).
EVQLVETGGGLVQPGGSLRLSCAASGFDLDEYGISWVRQAPGKGPEWVSVIYADGMRTVYADSVKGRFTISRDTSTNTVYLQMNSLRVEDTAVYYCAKGENAGTFDLWGQGTLVTVSS: 0.04, -0.41, -0.27, 0.06, 0.12, -0.16 (controls 0 of 18).
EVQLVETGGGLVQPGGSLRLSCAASGFDLNEYGISWVRQAPGKGPEWVSVIYADGMRTYYSDSVKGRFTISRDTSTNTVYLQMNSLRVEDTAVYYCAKGNNAGTFDVWGQGTLVTVSS: 0.06, 0.23, -0.23, -0.39, -0.38, 0.24 (controls 0 of 18).
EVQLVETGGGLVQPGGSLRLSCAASGFDLDEYGISWVRQAPGKGPEWVSVIYADGVRTAYADKVKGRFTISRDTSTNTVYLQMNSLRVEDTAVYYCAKGNNAGTFDVWGQGTLVTVSS: 0.24, 1.49, 1.47, 0.11, 0.38, 1.39 (controls 0 of 18).
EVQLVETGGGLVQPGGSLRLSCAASGFDLNEYGISWVRQAPGKGPEWVSVIYADGKRTAYSDSVKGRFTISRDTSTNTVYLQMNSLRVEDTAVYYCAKGGNAGTFDMWGQGTLVTVSS: 0.53, 0.01, -0.29, -0.29, -0.43, -0.17 (controls 0 of 18).
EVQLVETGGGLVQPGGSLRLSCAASGFDLNEYGISWVRQAPGKGPEWVSVIYADGMRTAYADSVKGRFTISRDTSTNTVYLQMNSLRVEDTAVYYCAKGENAGTFDLWGQGTLVTVSS: -0.30, -0.43, -0.56, -0.72, -0.73, -0.06 (controls 1 of 18).
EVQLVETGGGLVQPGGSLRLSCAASGFDLDEYGISWVRQAPGKGPEWVSVIYADGQRTAYVDSVKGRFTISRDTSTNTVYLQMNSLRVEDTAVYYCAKGNVAGTFDVWGQGTLVTVSS: -0.18, -0.49, -0.71, -0.45, -0.50, -0.45 (controls 0 of 18).
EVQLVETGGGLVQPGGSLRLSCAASGFDLNEYGISWVRQAPGKGPEWVSVIYADGMRTAYANSVKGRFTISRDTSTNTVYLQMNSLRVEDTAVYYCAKGEVAGTFDVWGQGTLVTVSS: 0.26, -0.10, -0.04, -0.28, 0.05, -0.01 (controls 0 of 18).
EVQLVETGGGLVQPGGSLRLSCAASGFDLDEYGISWVRQAPGKGPEWVSVIYADGRRTAYIDSVKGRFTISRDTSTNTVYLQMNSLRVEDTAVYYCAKGEVAGTFDVWGQGTLVTVSS: 0.33, -0.36, -0.64, -0.37, -0.65, -0.11 (controls 0 of 18).
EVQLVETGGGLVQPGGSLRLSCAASGFDLNEYGISWVRQAPGKGPEWVSVIYADGVRTAYSDSVKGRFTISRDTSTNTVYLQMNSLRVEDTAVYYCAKGTNAGTFDVWGQGTLVTVSS: -0.10, -0.34, -0.37, -0.10, -0.38, -0.08 (controls 0 of 18).
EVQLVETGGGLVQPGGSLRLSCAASGFDLNEYGISWVRQAPGKGPEWVSVIYADGMRTAYSDDVKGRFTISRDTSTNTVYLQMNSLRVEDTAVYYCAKGETAGTFDQWGQGTLVTVSS: 0.96, 0.26, 0.44, -0.31, -0.06, -0.46 (controls 0 of 18).
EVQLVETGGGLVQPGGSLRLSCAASGFDLNEYGISWVRQAPGKGPEWVSVIYADGMRTAYADNVKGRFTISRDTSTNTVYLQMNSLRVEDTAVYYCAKGNVAGTFDIWGQGTLVTVSS: -1.23, -0.94, -1.54, -1.82, -0.38, nd (controls 0 of 18).
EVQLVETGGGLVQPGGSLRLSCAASGFDLNEYGISWVRQAPGKGPEWVSVIYADGMRTAYANSVKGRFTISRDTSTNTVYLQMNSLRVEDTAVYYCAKGNVAGTFDQWGQGTLVTVSS: -0.48, -0.39, -0.37, -0.37, -0.55, -0.59 (controls 0 of 18).
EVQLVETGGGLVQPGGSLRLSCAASGFDLNEYGISWVRQAPGKGPEWVSVIYADGVRTAYSDSVKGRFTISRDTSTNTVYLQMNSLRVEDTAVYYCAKGANAGTFDIWGQGTLVTVSS: 0.48, 0.20, -0.29, 0.16, -0.17, 0.05 (controls 0 of 18).
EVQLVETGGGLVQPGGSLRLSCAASGFDLNEYGISWVRQAPGKGPEWVSVIYADGVRTAYSDSVKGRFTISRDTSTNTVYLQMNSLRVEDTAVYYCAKGETAGTFDVWGQGTLVTVSS: -0.67, -0.70, -0.98, -1.00, -0.94, -0.67 (controls 0 of 18).
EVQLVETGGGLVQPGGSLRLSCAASGFDLNEYGISWVRQAPGKGPEWVSVIYADGMRTFYADSVKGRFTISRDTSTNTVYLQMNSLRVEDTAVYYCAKGNNAGTFDIWGQGTLVTVSS: nd, nd, nd, nd, nd, nd (controls 0 of 18).
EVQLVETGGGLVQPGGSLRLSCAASGFDLNEYGISWVRQAPGKGPEWVSVIYADGMRTAYADKVKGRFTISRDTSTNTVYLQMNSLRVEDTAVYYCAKGGNAGTFDIWGQGTLVTVSS: -0.32, -0.48, -0.72, -1.00, -0.78, -0.53 (controls 0 of 18).
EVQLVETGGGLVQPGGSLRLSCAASGFDLNEYGISWVRQAPGKGPEWVSVIYADGMRTAYADDVKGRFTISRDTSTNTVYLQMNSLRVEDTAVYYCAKGANAGTFDIWGQGTLVTVSS: -0.22, -0.22, -0.59, -0.30, -0.43, -0.24 (controls 0 of 18).

Repeated from above, the 3 best binders with a signal in all replicates:

{"VH": "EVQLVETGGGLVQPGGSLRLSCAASGFDLDEYGISWVRQAPGKGPEWVSVIYADGVRTAYADSVKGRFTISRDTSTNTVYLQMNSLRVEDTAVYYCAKGNVAGTFDVWGQGTLVTVSS", "replicates, log10 nM": "-1.47, -1.01, -2.17, -1.78, -1.29, -1.17", "empty controls": "0/18"}
{"VH": "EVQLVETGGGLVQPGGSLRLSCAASGFDLDEYGISWVRQAPGKGPEWVSVIYADGVRTAYSDSVKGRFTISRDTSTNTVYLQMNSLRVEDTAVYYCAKGQNAGTFDVWGQGTLVTVSS", "replicates, log10 nM": "-0.56, -1.21, -0.73, -1.38, -1.26, -1.05", "empty controls": "0/18"}
{"VH": "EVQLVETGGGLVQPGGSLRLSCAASGFDLNEYGISWVRQAPGKGPEWVSVIYADGVRTAYSDSVKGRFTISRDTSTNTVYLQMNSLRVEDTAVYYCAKGETAGTFDVWGQGTLVTVSS", "replicates, log10 nM": "-0.67, -0.70, -0.98, -1.00, -0.94, -0.67", "empty controls": "0/18"}

From the AlphaSeq antibody data of Li et al. 2023 (doi:10.1038/s41467-023-39022-2), copy in the FLAb collection.